Measured values published in publication PMC4079689, “HIV Treatments Reduce Malaria Liver Stage Burden in a Non-Human Primate Model of Malaria Infection at Clinically Relevant Concentrations In Vivo” (PLoS ONE, 2014).
Read-outs that look alike come from different tables or passages of the source.

Tests used:
[1] = set-up: method as in Ibarra et al. Eur J Pharm Sci. 2012;46(5):516–21; conditions: human historical data, LPV-RTV; ref Ibarra et al. Eur J Pharm Sci. 2012;46(5):516–21; cited from earlier work
[2] = Pharmacokinetic study, single dose by gavage, plasma HPLC-MS/MS; conditions: dosing regimen LPV-RTV+TMP-SMX

CC(C)c1nc(CN(C)C(=O)N[C@H](C(=O)N[C@@H](Cc2ccccc2)C[C@H](O)[C@H](Cc2ccccc2)NC(=O)OCc2cncs2)C(C)C)cs1 [Ritonavir]
Cmax [1]: 610 ng/mL | Cmax ([2]; rhesus JMF, sedated, single dose by gavage (LPV-RTV 50 mg/kg; TMP 4 mg/kg + SMX 20 mg/kg)): 800 ng/mL | Cmax ([2]; rhesus JRH, awake, single dose by gavage): 3400 ng/mL
